The target in test [1] is T1, recombinant human MAO-B (Homo sapiens, UniProt P27338). Briefly: Enzyme kinetics / inhibition mechanism, MAO-B (Ki, Lineweaver-Burk).
The target of test [2] is T1, recombinant human MAO-B. Briefly: MAO-B inhibition, kynuramine deamination assay (IC50). Format: biochemical. Details: purchased BD Biosciences (Bedford, MA, USA). The protocol:
To investigate the effect of the selected constituents on MAO-A and MAO-B, the kynuramine deamination assay was adapted for 96-well plates as described earlier. A fixed substrate concentration and varying inhibitor concentrations were used to determine the IC50 value at the point where 50% inhibition of the catalytic activity of the enzyme occurred. For MAO-A, the substrate concentration of 80 μM kynuramine was chosen because the apparent KM value for substrate binding reported previously was approximately 40 μM [48]. […]. Similarly, for MAO-B, substrate concentration of 50 μM kynuramine was chosen. The assay was performed with the addition of inhibitor. Inhibition was calculated as percent of product formation compared to the corresponding control (enzyme-substrate reaction) without the inhibitors. The reactions were carried out in 0.1 M potassium phosphate buffer at pH 7.4. […] The formation of 4-hydroxyquinoline was determined fluorometrically by SpectraMax M5 fluorescence plate reader (Molecular Devices, Sunnyvale, CA, USA) with an excitation and emission wavelength of 320 nm and 380 nm, respectively, using the Soft Max Pro program. Appropriate controls with the test compounds, fractions and extracts, where the enzyme or the substrate was added after stopping the reaction were setup simultaneously to check interference with the fluorescence measurements. […]

Sequences of proteins named here, by UniProt entry; tags and fusion partners are left off.
UniProt P27338, whole entry: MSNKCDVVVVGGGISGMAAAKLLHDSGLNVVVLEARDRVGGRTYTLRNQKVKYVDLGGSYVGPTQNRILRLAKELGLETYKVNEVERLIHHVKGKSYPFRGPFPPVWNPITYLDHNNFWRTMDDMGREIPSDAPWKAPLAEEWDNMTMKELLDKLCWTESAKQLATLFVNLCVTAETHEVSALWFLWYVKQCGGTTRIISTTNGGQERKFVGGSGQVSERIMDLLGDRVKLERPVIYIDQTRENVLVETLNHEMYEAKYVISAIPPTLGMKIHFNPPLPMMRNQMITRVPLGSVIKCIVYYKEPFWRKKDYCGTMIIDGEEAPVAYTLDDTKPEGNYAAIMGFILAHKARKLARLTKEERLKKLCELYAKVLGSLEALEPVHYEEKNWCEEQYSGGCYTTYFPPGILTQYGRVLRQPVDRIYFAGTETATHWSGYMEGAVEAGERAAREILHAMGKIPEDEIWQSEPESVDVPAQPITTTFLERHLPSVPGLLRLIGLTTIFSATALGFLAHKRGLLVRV

Among the data in publication PMC6271006, “Monoamine Oxidase Inhibitory Constituents of Propolis: Kinetics and Mechanism of Inhibition of Recombinant Human MAO-A and MAO-B” (Molecules, 2014) are Ki and IC50 values, retold here.

As for `O=c1c(O)c(-c2ccccc2)oc2cc(O)cc(O)c12` [Galangin, galangin], at recombinant human MAO-B [1], the Ki (in general, a measure of affinity in units of concentration, obtained from inhibition or displacement) is 2 ± 0.039 µM. Besides, the IC50 – broadly, the concentration at which inhibition is half-maximal – on recombinant human MAO-B [2] was determined as 3.65 ± 0.15 µM.
